Only a part is listed here, and it is no random draw. Active and inactive are the calls of the source.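 How the source made its calls: active means percentage of spot-positive cells more than 3 SD above its plate mean, without a fluorescence outlier flag or 80% toxicity; inconclusive means no clear call, values can overlap the other calls; inactive means the rest.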

The nature of the experiment: GFP-LC3 puncta formation changes – imaging, high-content, MEF GFP-LC3, primary screen (AID 463193).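 Further: spot-positive cell cutoff set from DMSO-treated cells.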 Conditions: autophagy, at 10 µM, stronger effect = higher value.
`Cc1c(NP(C)(=O)Oc2ccc(C(C)C)cc2)c(=O)n(-c2ccccc2)n1C` (stereo unspecified): the % cells with GFP-LC3 spots is inactive: 8.38%.
With `CC(C)CC(=O)NC(Sc1ccc(Cl)cc1)C(Cl)(Cl)Cl` (stereo unspecified) the figure was inactive: 3.99%; with `O=[N+]([O-])c1cc([N+](=O)[O-])c(Nc2ccccn2)c([N+](=O)[O-])c1`, inactive: 1.61%.
On to `Oc1ccccc1CNc1ccccn1`, for which the % cells with GFP-LC3 spots was inactive: 3.06%.
For the compound `O=C(NC(Sc1ccncn1)C(Cl)(Cl)Cl)c1ccccc1` (stereo unspecified), the % cells with GFP-LC3 spots was inactive: 12.7%.
In the case of `Cc1c2non([O-])c-2c(C)[n+](=O)[n+]1[O-]`, the % cells with GFP-LC3 spots is inactive: 1.91%.
With `CP(=O)(Nc1ccccn1)Oc1ccccc1` (stereo unspecified) the figure was inactive: 9.74%; with `COc1ccccc1OP(C)(=O)Nc1ccc(C)cc1C` (stereo unspecified), inactive: 1.85%.
The figure for `CCc1ccc(OP(C)(=O)O)cc1` is inactive: 6.13%; for `NC(=O)c1cc([N+](=O)[O-])cc([N+](=O)[O-])c1N` it is inactive: 1.89%; for `Cc1ccc(N/C(=N/P(=O)(N2CCOCC2)N2CCOCC2)N2CCOCC2)cc1` it is inactive: 3.96%.
Take `COc1ccccc1OP(=O)(Nc1ccc(C)cn1)Oc1ccccc1OC`: the % cells with GFP-LC3 spots was inactive: 0%.
With `COc1ccc(OP(C)(=O)Nc2ccccn2)cc1` (stereo unspecified) the figure was inactive: 2.96%.
With `CN1CCCC(OC(=O)C(c2ccccc2)c2ccccc2)C1` (stereo unspecified) the figure was inactive: 11.4%; with `Clc1ccc(Cl)c(NC2=NCC(CBr)S2)c1` (stereo unspecified), inactive: 14.5%.
With `CN(C)CCOC(=O)C(O)(c1ccccc1)C1CCCC1` (stereo unspecified), the % cells with GFP-LC3 spots is inactive: 0.144%.
With `Cc1nc2ccc3ccccc3c2o1.O=[N+]([O-])c1cc([N+](=O)[O-])c(O)c([N+](=O)[O-])c1` the figure was inactive: 3.83%; with `CCN(N=Nc1nonc1N)c1nonc1N`, inactive: 3.23%; with `CP(=O)(Nc1ccc(Cl)cc1Cl)Oc1ccccc1` (stereo unspecified), inactive: 1.85%.
As to `CP(=O)(OCCOc1ccccc1)OCCOc1ccccc1`, the % cells with GFP-LC3 spots was inactive: 8.27%.
The figure for `Cc1cc(C)cc(OP(C)(=O)Nc2cccc(C(F)(F)F)c2)c1` (stereo unspecified) is inactive: 0.541%; for `Cc1cc(SC(NC(=O)c2ccc(F)cc2)C(Cl)(Cl)Cl)ncn1` (stereo unspecified) it is inactive: 7.95%; for `CCOP(=O)(Nc1ccccc1)OCC` it is inactive: 13.7%.
The figure for `COc1ccccc1OP(C)(=O)Nc1ccc(C)c(C)c1` (stereo unspecified) is inactive: 3.94%; for `COc1ccc(OP(C)(=O)Nc2ccccc2Br)cc1` (stereo unspecified) it is inactive: 10.3%.
For `O=[N+]([O-])c1ncn(CCn2ncnc2[N+](=O)[O-])n1`, the % cells with GFP-LC3 spots was inactive: 6.87%.
The figure for `CCOC(=O)c1ccc(NP(C)(=O)Oc2ccc(Cl)cc2)cc1` (stereo unspecified) is inactive: 22.3%; for `CP(=O)(OC12CC3CC(CC(C3)C1)C2)OC12CC3CC(CC(C3)C1)C2` it is inactive: 3.48%; for `COc1ccccc1OP(C)(=O)Nc1ccccc1Br` (stereo unspecified) it is inactive: 1.77%.
`CC(C)(C)c1ccc(OP(C)(=O)O)cc1`: the % cells with GFP-LC3 spots was inactive: 16.1%.
For `CCN(/C(=N/P(=O)(N1CCOCC1)N1CCOCC1)N1CCOCC1)c1ccc(OC)cc1`, the % cells with GFP-LC3 spots is inactive: 11.1%.
Turning to `CP(=O)(Nc1ccc(Cl)cc1)Oc1ccc(F)cc1` (stereo unspecified), the % cells with GFP-LC3 spots is inactive: 3.86%.
The figure for `CN(C)C(=O)c1c([N+](=O)[O-])cc([N+](=O)[O-])cc1[N+](=O)[O-]` is inactive: 1.98%.
Consider `CC(C)=N/N=C(\N)N[N+](=O)[O-]`, for which the % cells with GFP-LC3 spots is inactive: 3.1%.
On to `CN(C)C(=O)OCCc1n(C)cc[n+]1C`, for which the % cells with GFP-LC3 spots is inactive: 13.1%.
With `CC1CCN(C(=O)Oc2c(Cl)cc(Cl)c3cccnc23)CC1` the figure was inactive: 10.2%; with `CCN(CC)CC(O)COC(=O)C(O)(c1ccccc1)C1CCCCC1` (stereo unspecified), inactive: 13.6%.
The figure for `COc1ccc(OP(C)(=O)Nc2ccc(Br)cc2)cc1` (stereo unspecified) is inactive: 0.85%; for `COc1ccc(C2=NCC(CBr)S2)cc1` (stereo unspecified) it is inactive: 0.978%; for `O=[N+]([O-])c1cccc2n[nH]nc12` it is inactive: 14.1%.
The figure for `CC(=O)N1C2C3N(C(C)=O)C1C1N(C(C)=O)C(C(N1C(C)=O)N3C(C)=O)N2C(C)=O` is inactive: 4.39%; for `COc1ccccc1OP(C)(=O)Nc1c(C)n(C)n(-c2ccccc2)c1=O` (stereo unspecified) it is inactive: 12.7%.
In the case of `CP(=O)(Oc1ccccc1)N1CCOC1=O` (stereo unspecified), the % cells with GFP-LC3 spots was inactive: 6.67%.
With `Cc1ccc(NP(=O)(Oc2ccccc2)Oc2ccccc2)nc1` the figure was inactive: 0.446%; with `CCc1ccc(OP(C)(=O)Nc2cccnc2)cc1` (stereo unspecified), inactive: 13.9%.
The figure for `CCc1nc2c(n1)c1c(non1O)c1c2no[n+]1[O-]` is inactive: 18.7%; for `O=[N+]([O-])c1cc([N+](=O)[O-])c(CCNc2ccccc2)c([N+](=O)[O-])c1` it is inactive: 4.7%.
With `CP(=O)(Nc1ccc2c(c1)OCCO2)Oc1ccccc1` (stereo unspecified) the figure was inactive: 6.37%.
As for `Cc1ccccc1NP(C)(=O)Nc1ccccc1C`, the % cells with GFP-LC3 spots was inactive: 2.55%.
The figure for `CC(C)C(=O)NC(Sc1ccccc1)C(Cl)(Cl)Cl` (stereo unspecified) is inactive: 3.07%; for `O=P(Nc1nccs1)(c1ccccc1)c1ccccc1` it is inactive: 10.8%.
The figure for `CCOP(C)(=S)SCC(=O)NC(C)(CC)C(=O)O` (stereo unspecified) is inactive: 3.86%; for `CC(=O)NC(SC(=S)N(C)C)C(Cl)(Cl)Cl` (stereo unspecified) it is inactive: 10.8%.
Turning to `O=[N+]([O-])c1cc([N+](=O)[O-])c(NCC2CCS(=O)(=O)C2)c([N+](=O)[O-])c1` (stereo unspecified), the % cells with GFP-LC3 spots was inactive: 0.537%.
The figure for `C(Cc1nn[nH]n1)Cc1nn[nH]n1` is inactive: 17.8%.
With `O=C(OC1CN2CCC1CC2)c1cccc(Cl)c1` (stereo unspecified) the figure was inactive: 1.14%; with `COc1ccc(OP(C)(=O)Nc2cccc(Br)c2)cc1` (stereo unspecified), inactive: 1.64%; with `O=P(Nc1ccccn1)(c1ccc(Br)cc1)c1ccc(Br)cc1`, inactive: 17.4%.
The figure for `CN(C)CCOC(=O)C(O)(c1ccccc1)C1CCCCC1` (stereo unspecified) is inactive: 8.78%; for `COc1ccc(NP(C)(=O)Oc2ccccc2OC)cc1` (stereo unspecified) it is inactive: 11.3%; for `COC(=O)c1cc2c(s1)N=C(c1ccccc1)N(C)P2(=O)N1CCOCC1` (stereo unspecified) it is inactive: 1.94%.
As for `Cc1ccc(OP(=O)(Nc2ccccn2)Oc2ccc(C)cc2)cc1`, the % cells with GFP-LC3 spots is inactive: 8.75%.
The figure for `CC(=O)NC(SC(=S)N(CC(C)C)CC(C)C)C(Cl)(Cl)Cl` (stereo unspecified) is inactive: 15.5%.
The figure for `CCN(CC)CCCOC(=O)C(O)(c1ccccc1)C1CCCCC1` (stereo unspecified) is inactive: 1.49%.
The figure for `CCC(=O)N1C2C3N(C(=O)CC)C1C1N(C(=O)CC)C(C(N1C(=O)CC)N3C(=O)CC)N2C(=O)CC` is inactive: 4.77%; for `CP(=O)(Nc1ccccc1)Oc1ccc(F)cc1` (stereo unspecified) it is inactive: 6.63%.
As to `CCNC(=S)/N=C(\N)N[N+](=O)[O-]`, the % cells with GFP-LC3 spots is inactive: 10.9%.
Take `O=C(NC1CCS(=O)(=O)C1)NP(=S)(Oc1ccccc1)Oc1ccccc1` (stereo unspecified): the % cells with GFP-LC3 spots was inactive: 7.17%.
With `c1ccc(-c2nn[nH]n2)c(-c2nn[nH]n2)c1` the figure was inactive: 1.22%; with `CCOC(=O)NC(Sc1ccccc1)C(Cl)(Cl)Cl` (stereo unspecified), inactive: 5.67%.
In the case of `CCOC(=O)c1ccc(NP(C)(=O)Oc2ccc(F)cc2)cc1` (stereo unspecified), the % cells with GFP-LC3 spots is inactive: 10%.
For the compound `COc1ccc(OP(C)(=O)Nc2ccc(SC(F)(F)F)cc2)cc1` (stereo unspecified), the % cells with GFP-LC3 spots was inactive: 5.84%.
The figure for `O=C(OCCN1CCN(CCOCc2ccccc2)CC1)C(O)(c1ccccc1)c1ccccc1` is inactive: 9.05%; for `CC(=O)Nc1ccc(Oc2c([N+](=O)[O-])cc([N+](=O)[O-])cc2[N+](=O)[O-])cc1` it is inactive: 1.18%.
In the case of `O=P1(Nc2nc3ccc(Cl)cc3s2)COc2ccccc2O1` (stereo unspecified), the % cells with GFP-LC3 spots is inactive: 1.97%.
Consider `CCOc1ccc(C2=NCC(CBr)S2)cc1` (stereo unspecified), for which the % cells with GFP-LC3 spots is inactive: 0.629%.
With `CP(=O)(Nc1ccccc1F)Oc1ccccc1` (stereo unspecified), the % cells with GFP-LC3 spots is inactive: 6.99%.
In the case of `CC(C)(C)C(=O)NC(Sc1ccccc1)C(Cl)(Cl)Cl` (stereo unspecified), the % cells with GFP-LC3 spots was inactive: 2.27%.
As for `CC(C)c1ccc(OP(C)(=O)Nc2ccc(SC(F)(F)F)cc2)cc1` (stereo unspecified), the % cells with GFP-LC3 spots is inactive: 25.9%.
Consider `Cc1ccc(C)c(NP(C)(=O)Oc2ccccc2)c1` (stereo unspecified), for which the % cells with GFP-LC3 spots is inactive: 5.14%.
The figure for `Cc1cc(C)cc(OP(C)(=O)Nc2ccccn2)c1` (stereo unspecified) is inactive: 2.16%.
Consider `Cc1ccc(NCCc2c([N+](=O)[O-])cc([N+](=O)[O-])cc2[N+](=O)[O-])cc1`, for which the % cells with GFP-LC3 spots is inactive: 20.1%.
The figure for `CCOP(=O)(Nc1cccc2ccccc12)OCC` is inactive: 9.44%; for `COc1cc(C(=O)NCC2(N3CCOCC3)CCCCC2)cc(Cl)c1OC(C)C` it is inactive: 7.87%.
With `CCOC(=O)c1ccc(NP(C)(=O)Oc2cc(C)cc(C)c2)cc1` (stereo unspecified), the % cells with GFP-LC3 spots is inactive: 5.34%.
Turning to `Cc1cccc(OCC(=O)OC2CN3CCC2CC3)c1` (stereo unspecified), the % cells with GFP-LC3 spots is inactive: 7.44%.
With `Cc1cc(C)cc(OP(C)(=O)Nc2ccc(C)cc2C)c1` (stereo unspecified) the figure was inactive: 5.08%; with `O=[N+]([O-])c1ccc2c(c1)nnn2O`, inactive: 16.7%; with `CC1=NCCc2c1[nH]c1ccccc21.O=[N+]([O-])c1cc([N+](=O)[O-])c(O)c([N+](=O)[O-])c1`, inactive: 6.88%.
In the case of `CCOP1(=S)c2c(C)nn(CCC#N)c2N=C(c2ccc(F)cc2)N1C` (stereo unspecified), the % cells with GFP-LC3 spots is inactive: 0.898%.
Take `CCOP1(=S)c2c(C)nn(CCC#N)c2N=C(c2ccccc2F)N1C` (stereo unspecified): the % cells with GFP-LC3 spots was inactive: 10.1%.
Regarding `O=P(Nc1nccs1)(Oc1ccccc1)Oc1ccccc1`, the % cells with GFP-LC3 spots was inactive: 6.98%.
The figure for `O=P(Nc1nccs1)(c1ccccc1)c1nc2ccccc2s1` (stereo unspecified) is inactive: 9.09%; for `COc1ccccc1OP(C)(=O)Nc1c(C)cccc1C` (stereo unspecified) it is inactive: 7.27%; for `CN1CCCCC1COC(=O)C1(O)c2ccccc2CCc2ccccc21` (stereo unspecified) it is inactive: 5.3%.
Regarding `O=P1(Nc2ncccn2)COc2ccccc2OC1`, the % cells with GFP-LC3 spots was inactive: 5.01%.
Turning to `Cc1ccc(OCC(=O)OC2CN3CCC2CC3)cc1` (stereo unspecified), the % cells with GFP-LC3 spots is inactive: 8.01%.
Regarding `O=P1(Nc2ccc(Br)cn2)COc2ccccc2OC1`, the % cells with GFP-LC3 spots is inactive: 1.41%.
As for `CCCOc1ccc(NP(C)(=O)Oc2ccc(Cl)cc2)cc1` (stereo unspecified), the % cells with GFP-LC3 spots is inactive: 5.73%.
The figure for `CP(=O)(Nc1ccc(SC(F)(F)F)cc1)Oc1ccccc1` (stereo unspecified) is inactive: 3.37%; for `COc1cc(C2NCCC3(OCCO3)C2(C)C)cc(OC)c1OC.O=[N+]([O-])c1cc([N+](=O)[O-])c(O)c([N+](=O)[O-])c1` (stereo unspecified) it is inactive: 9.08%.

For the origin of these results see PubChem BioAssay AID463193 (University of Pittsburgh Molecular Library Screening Center, 2010).
